In this experiment the target is hKCNQ2/3 (Homo sapiens, UniProt O43525+O43526). Put plainly: Fluorescence assay using a voltage sensitive dye (fluorimetry). The settings on record: CHO-K1 cells expressing KCNQ2/3, Table 3. The protocol:
Fluorescence Assay using a Voltage Sensitive Dye
Human CHO-K1 cells expressing KCNQ2/3 channels are cultivated adherently at 37° C., 5% CO2 and 95% humidity in cell culture bottles (e.g. 80 cm^2 TC flasks, Nunc) with DMEM-high glucose (Sigma Aldrich, D7777) including 10% FCS (PAN Biotech, e.g. 3302-P270521) or alternatively MEM Alpha Medium (1×, liquid, Invitrogen, #22571), 10% fetal calf serum (FCS) (Invitrogen, #10270-106, heat-inactivated) and the necessary selection antibiotics.
Before being sown out for the measurements, the cells are washed with a 1×DPBS buffer without Ca^2+/Mg^2+ (e.g. Invitrogen, #14190-094) and detached from the bottom of the culture vessel by means of Accutase (PAA Laboratories, #L11-007) (incubation with Accutase for 15 min at 37° C.). The cell count then present is determined using a CASY™ cell counter (TCC model, Schärfe System) in order subsequently to apply, depending on the density optimization for the individual cell line, 20,000-30,000 cells/well/100 μl of the described nutrient medium to 96-well measuring plates of the Corning™ CellBIND™ type (Flat Clear Bottom Black Polystyrene Microplates, #3340). […]
The fluorescence measurements are carried out with a BMG Labtech FLUOstar™, BMG Labtech NOVOstar™ or BMG Labtech POLARstar™ instrument (525 nm excitation, 560 nm emission, Bottom Read mode). […]

Amino acid sequences for entries named in this document (tags omitted).
UniProt O43525, whole entry: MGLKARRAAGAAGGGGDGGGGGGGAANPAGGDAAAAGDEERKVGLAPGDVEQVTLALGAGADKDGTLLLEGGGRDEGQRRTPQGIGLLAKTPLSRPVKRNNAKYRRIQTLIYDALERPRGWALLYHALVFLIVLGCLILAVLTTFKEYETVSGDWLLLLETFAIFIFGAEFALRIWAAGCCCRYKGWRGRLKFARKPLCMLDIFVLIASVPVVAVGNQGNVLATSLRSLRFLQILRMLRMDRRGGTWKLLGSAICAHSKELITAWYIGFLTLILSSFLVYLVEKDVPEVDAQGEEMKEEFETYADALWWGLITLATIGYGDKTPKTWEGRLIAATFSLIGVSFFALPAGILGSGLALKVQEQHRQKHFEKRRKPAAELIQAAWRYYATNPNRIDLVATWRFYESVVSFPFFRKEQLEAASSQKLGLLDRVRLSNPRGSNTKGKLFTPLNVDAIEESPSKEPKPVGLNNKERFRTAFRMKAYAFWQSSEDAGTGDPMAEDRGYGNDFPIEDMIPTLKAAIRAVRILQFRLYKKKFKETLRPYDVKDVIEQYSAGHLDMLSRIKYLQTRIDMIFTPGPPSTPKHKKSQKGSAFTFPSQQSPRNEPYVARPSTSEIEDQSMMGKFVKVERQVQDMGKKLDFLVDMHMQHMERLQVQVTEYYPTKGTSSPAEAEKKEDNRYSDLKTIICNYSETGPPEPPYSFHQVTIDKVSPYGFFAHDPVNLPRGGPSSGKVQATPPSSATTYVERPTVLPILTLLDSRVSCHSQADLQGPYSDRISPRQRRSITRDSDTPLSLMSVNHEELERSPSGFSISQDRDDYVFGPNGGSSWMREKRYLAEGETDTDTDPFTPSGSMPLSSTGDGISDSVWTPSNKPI
UniProt O43526, whole entry: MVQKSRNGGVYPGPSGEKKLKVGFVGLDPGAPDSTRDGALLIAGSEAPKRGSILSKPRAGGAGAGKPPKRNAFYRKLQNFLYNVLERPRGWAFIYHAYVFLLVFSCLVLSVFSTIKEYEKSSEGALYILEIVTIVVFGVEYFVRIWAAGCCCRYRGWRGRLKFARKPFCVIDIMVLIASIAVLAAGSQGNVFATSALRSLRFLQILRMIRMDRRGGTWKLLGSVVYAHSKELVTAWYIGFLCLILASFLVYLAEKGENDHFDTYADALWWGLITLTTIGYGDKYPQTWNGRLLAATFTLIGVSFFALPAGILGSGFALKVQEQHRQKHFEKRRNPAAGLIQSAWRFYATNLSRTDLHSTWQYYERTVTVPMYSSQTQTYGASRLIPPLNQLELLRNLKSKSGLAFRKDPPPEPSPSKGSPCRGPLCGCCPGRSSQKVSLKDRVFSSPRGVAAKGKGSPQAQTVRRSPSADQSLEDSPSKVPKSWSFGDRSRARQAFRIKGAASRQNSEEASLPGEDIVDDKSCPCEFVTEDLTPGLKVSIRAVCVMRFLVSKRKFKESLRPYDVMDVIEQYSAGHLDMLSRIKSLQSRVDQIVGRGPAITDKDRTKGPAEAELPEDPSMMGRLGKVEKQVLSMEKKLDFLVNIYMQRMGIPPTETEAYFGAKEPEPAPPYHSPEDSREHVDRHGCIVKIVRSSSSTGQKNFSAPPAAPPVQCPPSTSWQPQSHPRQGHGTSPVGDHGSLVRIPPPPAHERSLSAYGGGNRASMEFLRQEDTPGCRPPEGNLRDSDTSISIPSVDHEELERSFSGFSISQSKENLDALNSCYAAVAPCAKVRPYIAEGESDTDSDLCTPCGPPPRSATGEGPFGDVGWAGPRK

The results in this text go back to patent US20100105722A1, “Substituted 4,5,6,7-tetrahydrothienopyridines as KCNQ2/3 Modulators” (GRUENENTHAL GmbH, priority 2008, published 2010).

pEC50: −log10 of the molar value.

With `O=C(CCC(=O)N1CCc2sccc2C1c1cccc(F)c1)NCc1cccc(C(F)(F)F)c1` (centres unmarked), where the note is “10 μM, relative to retigabine = 100%”, the “Fluorimetry % Efficacy @ 10 μM (reti-gabine = 100%)” value was 103%. For the same compound, for the setting “read-out: Fluorimetry EC50”, the pEC50 was 6.45.

As usually defined, the pEC50 is the EC50 on a negative log10 scale, so that one unit is a factor of ten.
